From ChEMBL document CHEMBL3862028, “Exploring N-Arylsulfonyl-l-proline Scaffold as a Platform for Potent and Selective αvβ1 Integrin Inhibitors” (ACS Med Chem Lett, 2016)

By UniProt entry, the sequences of proteins in these tests, tags left out. Residues count along the entry.
UniProt P06756, 891-1048 limits assumed: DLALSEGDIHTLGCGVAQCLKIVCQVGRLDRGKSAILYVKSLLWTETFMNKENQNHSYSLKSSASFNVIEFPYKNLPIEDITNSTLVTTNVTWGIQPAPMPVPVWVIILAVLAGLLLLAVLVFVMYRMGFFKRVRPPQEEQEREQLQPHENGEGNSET
UniProt P06756, 31-889 limits assumed: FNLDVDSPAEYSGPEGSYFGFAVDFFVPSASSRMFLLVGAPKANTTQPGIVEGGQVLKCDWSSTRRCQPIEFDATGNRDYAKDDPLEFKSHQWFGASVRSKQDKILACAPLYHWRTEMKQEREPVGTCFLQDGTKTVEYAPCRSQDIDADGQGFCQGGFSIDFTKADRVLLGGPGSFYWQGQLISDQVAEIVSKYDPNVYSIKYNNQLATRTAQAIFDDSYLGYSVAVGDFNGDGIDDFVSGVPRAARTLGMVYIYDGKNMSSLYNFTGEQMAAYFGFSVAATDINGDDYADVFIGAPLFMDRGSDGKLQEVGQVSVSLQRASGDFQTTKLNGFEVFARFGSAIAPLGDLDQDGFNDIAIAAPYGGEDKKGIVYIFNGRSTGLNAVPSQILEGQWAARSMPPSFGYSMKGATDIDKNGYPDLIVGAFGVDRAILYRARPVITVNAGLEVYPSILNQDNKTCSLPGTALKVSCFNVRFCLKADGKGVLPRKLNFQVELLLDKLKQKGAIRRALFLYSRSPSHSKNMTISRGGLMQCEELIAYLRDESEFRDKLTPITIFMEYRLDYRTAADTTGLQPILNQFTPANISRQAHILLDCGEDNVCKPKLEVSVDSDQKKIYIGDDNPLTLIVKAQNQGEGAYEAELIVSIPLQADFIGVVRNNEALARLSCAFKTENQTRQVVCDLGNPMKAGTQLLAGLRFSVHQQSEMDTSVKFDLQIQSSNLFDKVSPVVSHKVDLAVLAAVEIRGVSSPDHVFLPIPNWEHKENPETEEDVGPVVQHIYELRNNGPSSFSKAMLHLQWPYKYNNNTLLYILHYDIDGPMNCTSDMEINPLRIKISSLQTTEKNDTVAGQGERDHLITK

Biological target: Integrin alpha-V/beta-1 (Homo sapiens, UniProt P05556+P06756)
Assay: Inhibition of integrin alphaVbeta1 (unknown origin)-mediated CHO cell adhesion to fibronectin preincubated for 15 to 30 mins followed by 60 min incubation for adhesion by crystal violet staining based cell adhesion assay
Summary of the method: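 α5-deficient CHO cells engineered to express αvβ1 were tested for adhesion to fibronectin (0.3 mg/ml). Values reported as pIC50 (–logIC50, M) with standard deviation, n=3.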

IC50: 100 µM
Structure (SMILES): N=C(N)NCCC[C@H](NC(=O)CN)C(=O)NCC(=O)N[C@@H](CC(=O)O)C(=O)N[C@@H](CO)C(=O)O
